Values of other authors as cited in PMC7304070 (Journal of the American Chemical Society, 2020).

Tested on: cells
Details: linear peptide; cited from earlier work

## pDI: linear peptide LTFEHYWAQLTS binding MDM2
  activity in cells: negligible activity in cells
